Paper PMC6662154 (ACS Central Science, 2019)

Target: T1, PscG (Pseudomonas aeruginosa, UniProt P95435 1-115)
T1 sequence (looked up): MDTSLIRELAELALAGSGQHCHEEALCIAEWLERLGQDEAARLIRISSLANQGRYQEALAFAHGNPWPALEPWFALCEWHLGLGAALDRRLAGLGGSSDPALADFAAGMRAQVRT
Test: ITC

B1: PscE (natural protein, Pseudomonas aeruginosa, UniProt Q9I317 1-67, looked up)
chain: MMTALETRLSVADGTHAAALRQRLQAALAECRRELARGACPEHFQFLQQQARALEGGLGILSQLTED
- Kd: 1170 nM
